The subject of assay [1] is HCT-116 cells (KRAS G13D). Nature of the assay: Proliferation inhibition (CellTiter-Glo), HCT116. As to conditions: read-out: HCT116 Prolif. EC50; HCT116, 3 days. As to the method:
(§1) All cancer cell lines (A375, A101D, A2058, RKO, HT29 SK-MEL 30, IPC298, HepG2, HCT-116, Lovo, SWV620, SW480, NCI-H358, NCI-H2122, Calu-6, NCIH2087, NCIH1755, NCIH1666 and Mewo) were obtained from ATCC and cultured in RPMI-1640 medium (Gibco) supplemented with 5% heat inactivated fetal bovine serum (FBS, Wisent) at 37° C. under 5% CO2. Cells were maintained in T175 flasks (Greiner). They were passaged by removing the culture medium, washing once in 10 mL of room temperature Phosphate Buffered Saline (PBS; Wisent) and incubating at 37° C. with 2 mL of 0.05% Trypsin (Thermo-Fisher). Trypsin was then inactivated by adding complete growth medium and the cells were then replated in a T175 culture dish at the appropriate dilution. All cell lines were routinely tested for mycoplasma contamination. Tissue type and mutational status of each cell line can be found in Table B.
(§2) CellTiter-Glo® viability analysis was conducted on cells plated in 100 μL of complete RPMI-1640 growth medium in 96-well flat-bottomed white opaque plates (Greiner or Croning) at a density indicated in Table E (for each CCL, number of cells plated per well of a 96-well plate to perform the CellTiter-Glo® cell viability assay). The cell density in cells/cm^2 would correspond to cell number divided by the area of one well of a 96-well plate (0.32 cm^2). Cells were maintained overnight at 37° C. under 5% CO2 before treatment with compounds' dilution series for 3 days.
(§3) In a dilution series 100 μL/well of test substance dilution prepared in complete RPMI-1640 growth media was added to the cells plated initially in 100 μL of growth media. The dilution series is selected so that ten concentrations cover a range from 10 μM to 0.33 nM. If necessary (as in the case of A375 cells, which were more sensitive to the compounds) the initial concentration of 10 μM is lowered to 1 μM and further dilution is carried out accordingly. The final concentration of DMSO in the assay is set at is 0.5%.
(§4) After 3 days of incubation, the growth media were removed by aspiration and 60 μL of diluted CellTiter-Glo® reagent (10 μL CellTiter-Glo® reagent+50 μL of PBS) was added to each well. Cells were allowed to lyse and to equilibrate in CellTiter-Glo® reagent by 5 min incubation on a plate shaker followed by 10 min incubation at room temperature. Luminescence signals were then acquired on a Synergy Neo2 plate reader (Biotek).
(§5) The effect of each compound dilution on the proliferation of cancer cell lines was expressed in % inhibition and calculated as follows. An internal 100% inhibition control (1 μM of trametinib; cat #HY-10999; MedChem Express; CAS #871700-17-3) was included in each plate and used as a measure of CellTiter-Glo® signal background. The value obtained for trametinib was subtracted from each data point. The average of DMSO (vehicle) controls (set as 0% inhibition) was established and used to calculate % inhibition: % inhibition=100*(1−((CellTiter-Glo® signalcompound)/(CellTiter-Glo® signalDMSO)))
(§6) The ability of each compound to inhibit proliferation was expressed as a EC50 value obtained by plotting the effect values for each data point of a dilution series and fitting the obtained curves using a log(agonist) versus response-variable slope (four parameters) function using GraphPadPrism (V7.0) or Dotmatics Screening Ultra platform.
For orientation: ATP-based viability assays read luminescence as a measure of living cells.

Chains of the proteins cited; added tags and fusions are not shown.
UniProt P15056, whole entry: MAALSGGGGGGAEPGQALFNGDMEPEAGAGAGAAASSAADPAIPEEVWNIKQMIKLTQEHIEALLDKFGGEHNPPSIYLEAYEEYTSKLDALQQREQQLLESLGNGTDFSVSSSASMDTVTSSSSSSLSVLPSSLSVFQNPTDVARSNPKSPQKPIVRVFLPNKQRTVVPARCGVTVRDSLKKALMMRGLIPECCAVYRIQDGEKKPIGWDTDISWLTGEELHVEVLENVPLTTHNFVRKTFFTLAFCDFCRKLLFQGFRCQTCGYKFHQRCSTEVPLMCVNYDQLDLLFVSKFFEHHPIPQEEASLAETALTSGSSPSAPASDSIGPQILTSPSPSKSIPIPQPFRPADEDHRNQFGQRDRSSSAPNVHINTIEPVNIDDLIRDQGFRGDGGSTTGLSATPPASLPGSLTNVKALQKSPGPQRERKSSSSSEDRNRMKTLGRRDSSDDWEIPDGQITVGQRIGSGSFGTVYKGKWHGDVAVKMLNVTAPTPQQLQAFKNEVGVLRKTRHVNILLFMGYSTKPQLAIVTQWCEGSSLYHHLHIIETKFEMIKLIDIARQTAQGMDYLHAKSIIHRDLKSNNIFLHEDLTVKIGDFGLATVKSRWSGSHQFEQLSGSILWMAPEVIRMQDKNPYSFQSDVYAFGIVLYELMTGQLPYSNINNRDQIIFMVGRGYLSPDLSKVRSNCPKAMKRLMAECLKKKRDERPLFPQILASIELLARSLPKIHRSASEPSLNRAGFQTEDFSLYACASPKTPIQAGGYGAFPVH
UniProt P04049, whole entry: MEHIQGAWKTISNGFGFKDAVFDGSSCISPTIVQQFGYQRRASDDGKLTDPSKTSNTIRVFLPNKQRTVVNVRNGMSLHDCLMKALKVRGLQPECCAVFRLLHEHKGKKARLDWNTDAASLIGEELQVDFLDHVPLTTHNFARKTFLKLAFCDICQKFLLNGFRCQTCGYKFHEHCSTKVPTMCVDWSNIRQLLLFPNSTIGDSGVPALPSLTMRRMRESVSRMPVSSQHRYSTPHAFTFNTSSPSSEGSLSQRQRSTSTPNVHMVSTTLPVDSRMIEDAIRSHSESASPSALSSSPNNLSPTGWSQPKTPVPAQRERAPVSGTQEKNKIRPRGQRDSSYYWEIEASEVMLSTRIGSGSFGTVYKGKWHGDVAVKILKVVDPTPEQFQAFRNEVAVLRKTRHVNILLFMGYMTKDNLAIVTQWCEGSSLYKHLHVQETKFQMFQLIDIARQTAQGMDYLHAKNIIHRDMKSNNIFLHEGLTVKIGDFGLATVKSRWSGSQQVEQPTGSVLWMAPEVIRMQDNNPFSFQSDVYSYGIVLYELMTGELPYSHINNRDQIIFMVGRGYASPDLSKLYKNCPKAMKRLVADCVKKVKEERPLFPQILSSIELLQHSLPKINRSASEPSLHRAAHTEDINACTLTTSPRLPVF

The next assay deals with HT29 cells (BRAF V600E). Kind of assay: Proliferation inhibition (CellTiter-Glo), HT29. As to conditions: read-out: HT-29 Prolif. EC50; HT-29, 3 days. As to the method: as §1, §2, §3, §4, §5, §6
In assay [2] the test system is pERK in Lovo cells (KRAS-G13D). Kind of assay: Phospho-ERK inhibition (AlphaLISA), Lovo. The method, then: as §1
AlphaLISA® SureFire® Ultra™ p-ERK 1/2 (Thr202/Tyr204) analysis was conducted on cells plated in 100 μL of complete RPMI-1640 growth medium in 96-well flat-bottomed transparent dishes (Costar) at a density indicated in Table C. Cells were maintained overnight at 37° C. under 5% CO2 before treatment with compounds' dilution series for one hour. The cell density in cells/cm^2 corresponds to cell number divided by the area of one well of a 96-well plate ([…]).
In a dilution series 100 μL/well of test substance dilution prepared in complete RPMI-1640 growth media was added to the cells. The dilution series is selected so that ten concentrations cover a range from 10 μM to 0.33 nM. If necessary the initial concentration of 10 μM is increased to 100 μM or lowered to 1 μM (as in the case of A375 and H1666 cells, which are generally more sensitive to the compounds) and further dilution is carried out accordingly. The final concentration of DMSO in the assay is set at 0.5%.
After treatment, media was removed and cells were lysed in 50 μL of 1× AlphaScreen Ultra Lysis Buffer (Perkin Elmer). The AlphaLISA® SureFire® Ultra™ p-ERK 1/2 (Thr202/Tyr2O4) (PerkinElmer) reactions were performed with 5 μL of cell lysate according to the manufacturer's specifications in 384-well proxyplates (Perkin Elmer) followed by overnight incubation of the reactions at room temperature in a humidified chamber. After completion of the reactions, the signals were recorded on an EnVision plate reader (Perkin Elmer) using built in AlphaLISA® settings.
The effect of each compound dilution on the pERK signal was expressed in % inhibition and calculated as follows. An internal 100% inhibition control ([…] trametinib, cat #HY-10999; MedChem Express; CAS #871700-17-3) was included in each plate and used as a measure of pERK background. First, the value obtained for trametinib was subtracted from each data point. The average of DMSO (vehicle) controls (set as 0% inhibition) was established and used to calculate % inhibition: % inhibition=100*(1-((pERK signalcompound)/(pERK signalDMSO)))
The ability of each compound to inhibit pERK signal was expressed as an IC50 value obtained by plotting the inhibition values for each data point of a dilution series and fitting the obtained curves using a log(agonist) versus response-variable slope (four parameters) function using GraphPadPrism (V7.0) or Dotmatics Screening Ultra platform.
When present, paradoxical pERK induction is inferred from the negative % inhibition values observed in the pERK IC50 curves of a compound.
Background: Bead proximity is the source of the signal in Alpha formats.

The next assay has as its target BRAF (Homo sapiens (Human), UniProt P15056). Kind of assay: BRAF kinase activity assay (ADP-Glo). As to conditions: read-out: Kinase IC50 (nM), BRAF biochemical kinase assay; BRAF. On the technique in general: In ADP-Glo the light output rises with the ADP produced.
In assay [3] the test system is NCI-H2122 cells (KRAS-G12C). Nature of the assay: Proliferation inhibition (CellTiter-Glo), NCI-H2122. As to conditions: read-out: NCI-H2122 Prolif. EC50; NCI-H2122, 3 days. As to the method:
as §1, §2, §3, §4, §5, §6

The target in a further assay is CRAF (Homo sapiens, UniProt P04049). Nature of the assay: CRAF kinase activity assay (ADP-Glo). As to conditions: read-out: Kinase IC50 (nM), CRAF biochemical kinase assay; CRAF.
Another assay concerns Lovo cells (KRAS-G13D). Kind of assay: Proliferation inhibition (CellTiter-Glo), Lovo. As to conditions: read-out: Lovo Prolif. EC50, 3 days. The method, then:
as §1, §2, §3, §4, §5, §6

One may read the EC50 as the concentration giving half of the maximal effect. What is called IC50 is the concentration at which inhibition is half-maximal.

As to `Cc1c(Cl)csc1S(=O)(=O)Nc1ccc(F)c(Nc2ncnc3ccc(-n4cc(S(=O)(=O)N(C)CCN(C)C)c5ccccc54)nc23)c1F`, the EC50 in assay [1] was under 30 nM; in the assay with HT29 cells (BRAF V600E), under 30 nM; in assay [3], 300 to 3000 nM; with Lovo cells (KRAS-G13D), under 30 nM. Further, the IC50 is 30 to 300 nM in assay [2] (read-out: Lovo pERK IC50), under 1 nM on BRAF and under 10 nM on CRAF. Besides, the “Lovo pERK % Ymin” value in assay [2] (value in parentheses) is listed as −17%.
